Measured values published in PubChem BioAssay AID624037 (The Scripps Research Institute Molecular Screening Center, 2012).
The list shows a part of the results, in another mix than the full data. Active and inactive are the calls of the source.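 How the source made its calls: active means activation above the run's mean over test compounds plus 3 SD (cut at about 23% in these data); inactive means the rest.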

The chains behind the UniProt entries cited, without tags or fusion partners.
UniProt P08912, whole entry: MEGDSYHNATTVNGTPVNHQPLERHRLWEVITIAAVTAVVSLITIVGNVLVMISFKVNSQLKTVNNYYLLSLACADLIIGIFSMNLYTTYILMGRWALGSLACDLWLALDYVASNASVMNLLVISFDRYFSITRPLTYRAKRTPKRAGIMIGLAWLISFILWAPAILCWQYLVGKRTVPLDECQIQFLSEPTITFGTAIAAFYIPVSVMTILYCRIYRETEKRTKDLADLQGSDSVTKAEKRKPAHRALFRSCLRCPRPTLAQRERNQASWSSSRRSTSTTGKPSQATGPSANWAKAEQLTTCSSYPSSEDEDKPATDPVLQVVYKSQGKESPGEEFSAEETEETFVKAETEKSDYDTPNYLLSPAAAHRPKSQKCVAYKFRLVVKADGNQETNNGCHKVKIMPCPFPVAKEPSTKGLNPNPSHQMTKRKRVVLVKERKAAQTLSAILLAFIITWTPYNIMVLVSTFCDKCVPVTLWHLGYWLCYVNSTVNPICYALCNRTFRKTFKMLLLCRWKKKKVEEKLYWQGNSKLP

The molecules below were run against Muscarinic acetylcholine receptor M5 (Homo sapiens) (UniProt P08912) (assay: human M5 muscarinic receptor agonists, primary screen, CHO-K1 cells, Fluo-8 calcium fluorescence (AID 624037;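 further: signal is peak over basal fluorescence ratio across the kinetic read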)). Conditions: CHO-K1 hM5 cells, at 3 µM, active compounds read high, 0% DMSO wells, 100% maximal acetylcholine response.

Structure (SMILES) | activation
CN1CCC(Nc2ccc(F)c(Cl)c2)CC1 | inactive: -15.5%
CCOc1ncccc1C(=O)NCC1(N2CCOCC2)CCCCC1 | inactive: -0.88%
O=c1[nH]c2ccccc2n1C1CCN(C(c2cc3ccccc3o2)c2nnnn2C2CCCC2)CC1 (stereo not drawn) | inactive: 3.21%
CCCOc1ccc(C(=O)NCC2(N(C)C)CCCCC2)cc1 | inactive: -6.04%
O=C(O)C1(Nc2ccccc2)CCN(Cc2ccccc2)CC1 | inactive: -5.32%
NN(c1ccccc1)C1CCN(CCc2ccccc2)CC1 | inactive: -6.95%
CC(C)(C)OC(=O)N1CCC(Nc2ccccc2)CC1 | inactive: 1.14%
CCC(CO)(C(=O)OC1CN2CCC1CC2)c1ccccc1 (stereo not drawn) | inactive: -7.3%
COc1cc(OC)cc(C(=O)NCC2(N3CCOCC3)CCCCC2)c1 | inactive: -2.11%
COc1cccc(C(c2nnnn2C2CCCC2)N2CCC(n3c(=O)[nH]c4ccccc43)CC2)c1OC (stereo not drawn) | inactive: -3.95%
COc1cccc(C(=O)N(c2cc(C)cc(C)c2)C2CCN(C(=O)OC(C)(C)C)CC2)c1 | inactive: -6.2%
CN1CCC(Nc2ccc(Cl)cc2)CC1 | inactive: -5.69%
COc1cc(OC)cc(C(=O)NCC2(N3CCCCC3)CCCCC2)c1 | inactive: -3.65%
O=c1[nH]c2ccccc2n1C1CCN(C(c2ccnc3ccccc23)c2nnnn2C2CCCCC2)CC1 (stereo not drawn) | inactive: 1.46%
CCC(c1nnnn1C1CCCCC1)N1CCC(n2c(=O)[nH]c3ccccc32)CC1 (stereo not drawn) | inactive: 7.07%
COc1cccc(C(c2nnnn2C2CCCCC2)N2CCC(n3c(=O)[nH]c4ccccc43)CC2)c1OC (stereo not drawn) | inactive: 1.22%
CC(=O)N(c1ccccc1)C1CCNCC1 | inactive: -8.02%
Cc1ccc(NC2(C#N)CCN(Cc3ccccc3)CC2)cc1 | inactive: 3.81%
Fc1ccccc1NC1CCN(Cc2ccccc2)CC1 | inactive: -2.44%
Cc1ccc(C(=O)NCC2(N3CCCCC3)CCCCC2)o1 | inactive: 1.13%
CCN1CCC(Nc2cccc(F)c2)CC1 | inactive: -7.09%
COc1ccc(C(c2nnnn2C2CCCCC2)N2CCC(n3c(=O)[nH]c4ccccc43)CC2)cc1 (stereo not drawn) | inactive: 1.86%

Structure (SMILES) | activation
CC(C)(C)n1nnnc1C(c1ccnc2ccccc12)N1CCC(n2c(=O)[nH]c3ccccc32)CC1 (stereo not drawn) | active: 29.4%
Cc1ccccc1NC1(C#N)CCN(Cc2ccccc2)CC1 | inactive: -1.36%
CN(C)c1ccc(C(=O)NCC2(N3CCCCC3)CCCCC2)cc1 | inactive: -2.53%
Cn1c(=O)[nH]cc(N(CCCl)CCCl)c1=O | inactive: 1.62%
O=C(NCC1(N2CCCCC2)CCCCC1)c1ccco1 | inactive: -0.62%
CC(C)(C)OC(=O)N1CCC(N(C(=O)c2ccccc2)c2ccc(Cl)cc2)CC1 | inactive: -4.12%
N#Cc1ccc(C(=O)NCC2(N3CCCCC3)CCCCC2)cc1 | inactive: -4.19%
Cc1cc(N(CCCl)CCCl)ccc1C=O | inactive: -7.93%
O=c1[nH]c2ccccc2n1C1CCN(C(c2ccccc2)c2nnnn2C2CCCC2)CC1 (stereo not drawn) | inactive: 7.67%
CCCN1CCC(Nc2cc(OC)cc(OC)c2)CC1 | inactive: -3.07%
c1ccc(CN2CCC(Nc3ccccc3)CC2)cc1 | inactive: -8.71%
CN(C)C1(CNC(=O)c2cccc(C#N)c2)CCCCC1 | inactive: -4.85%
CC(C)(C)n1nnnc1C(c1cccc2ccccc12)N1CCC(n2c(=O)[nH]c3ccccc32)CC1 (stereo not drawn) | inactive: 6.98%
O=C(NCC1(N2CCOCC2)CCCCC1)c1cc(Br)ccc1Cl | inactive: -1.14%
COc1cc(C(=O)NCC2(N3CCOCC3)CCCCC2)cc(OC)c1C | inactive: -1.34%
CCCCn1nnnc1C(c1ccccc1)N1CCC(n2c(=O)[nH]c3ccccc32)CC1 (stereo not drawn) | inactive: 6.65%
O=c1[nH]c2ccccc2n1C1CCN(C(c2ccnc3ccccc23)c2nnnn2C2CCCC2)CC1 (stereo not drawn) | inactive: 6.35%
COc1ccc(C(=O)NCC2(N3CCOCC3)CCCCC2)cc1OC | inactive: 0.28%
O=c1[nH]c2ccccc2n1C1CCN(C(c2cccs2)c2nnnn2C2CCCCC2)CC1 (stereo not drawn) | inactive: 9.5%
N/C(=N\O)c1c(N)no[n+]1[O-] | inactive: -1.71%
CCOC(=O)N1CCC(Nc2ccc(C)cc2)CC1 | inactive: -8.75%
COc1cccc(C(c2nnnn2C(C)(C)C)N2CCC(n3c(=O)[nH]c4ccccc43)CC2)c1OC (stereo not drawn) | inactive: 5.66%

Structure (SMILES) | activation
CCCCn1nnnc1C(c1cccc(OC)c1OC)N1CCC(n2c(=O)[nH]c3ccccc32)CC1 (stereo not drawn) | inactive: -2.42%
O=c1[nH]c2ccccc2n1C1CCN(C(c2cccs2)c2nnnn2C2CCCC2)CC1 (stereo not drawn) | inactive: 10.9%
O=C(OC1CN2CCC1CC2)C1c2ccccc2C=Cc2ccccc21 (stereo not drawn) | inactive: -8.42%
CN(C)c1cccc(C(=O)NCC2(N3CCCCC3)CCCCC2)c1 | inactive: -12.6%
COc1ccc(CN(CCCl)CCCl)cc1Cl | inactive: -1.32%
CCCCn1nnnc1C(c1ccccc1OC(F)(F)F)N1CCC(n2c(=O)[nH]c3ccccc32)CC1 (stereo not drawn) | inactive: 0.78%
CC(C)c1ccc(NC2CCN(C(=O)OC(C)(C)C)CC2)cc1 | inactive: 2.11%
CCCCn1nnnc1C(c1ccnc2ccccc12)N1CCC(n2c(=O)[nH]c3ccccc32)CC1 (stereo not drawn) | inactive: 4.3%
CCC(c1nnnn1C(C)(C)C)N1CCC(n2c(=O)[nH]c3ccccc32)CC1 (stereo not drawn) | inactive: 2.24%
O=C(NCC1(N2CCOCC2)CCCCC1)c1cc(F)c(F)cc1Cl | inactive: 2.73%
COc1cc(OC)c(C(=O)NCC2(N(C)C)CCCCC2)cc1OC | inactive: -0.99%
CN1CCC(Nc2cccc(F)c2)CC1 | inactive: -7%
O=C(NCC1(N2CCCCC2)CCCCC1)c1cncc(Br)c1 | inactive: -1.5%
CCCOc1ccc(C(=O)NCC2(N(C)C)CCCCC2)cc1OC | inactive: -3.11%
Cc1ccc(C(=O)NCC2(N(C)C)CCCCC2)o1 | inactive: -1.14%
COc1ccc(C(c2nnnn2C2CCCC2)N2CCC(n3c(=O)[nH]c4ccccc43)CC2)cc1 (stereo not drawn) | inactive: -4.81%
O=C(NCC1(N2CCCCC2)CCCCC1)c1ccc(OC(F)F)cc1 | inactive: -8.93%
CC(C)(C)n1nnnc1C(c1ccccc1OC(F)(F)F)N1CCC(n2c(=O)[nH]c3ccccc32)CC1 (stereo not drawn) | inactive: 4.28%
O=C(NCC1(N2CCCCC2)CCCCC1)c1cccc([N+](=O)[O-])c1 | inactive: -12.8%
CSc1ccc(C(=O)NCC2(N3CCOCC3)CCCCC2)cc1 | inactive: -2.82%
O=c1[nH]c2ccccc2n1C1CCN(C(c2ccccc2OC(F)(F)F)c2nnnn2C2CCCC2)CC1 (stereo not drawn) | inactive: -2.34%
N#CC1(Nc2ccccc2)CCN(CCc2ccccc2)CC1 | inactive: -0.51%

Structure (SMILES) | activation
CCN1CCC(Nc2ccc(Cl)cc2)CC1 | inactive: -6.69%
O=C(NCC1(N2CCCCC2)CCCCC1)c1cccc(C(F)(F)F)c1 | inactive: -0.75%
CN1CCN(CCOC(=O)C(O)(c2ccccc2)c2ccccc2)CC1 | inactive: -7.68%
CC(C)c1ccc(C(=O)NCC2(N3CCOCC3)CCCCC2)cc1 | inactive: -2.85%
COc1ccc(NC2CCN(C(=O)OC(C)(C)C)CC2)cc1 | inactive: -3.02%
CCCCn1nnnc1C(c1cccc2ccccc12)N1CCC(n2c(=O)[nH]c3ccccc32)CC1 (stereo not drawn) | inactive: 4.76%
COc1cc(C(=O)NCC2(N3CCCCC3)CCCCC2)ccc1OC(F)F | inactive: -7.7%
O=C(NCC1(N2CCOCC2)CCCCC1)c1cc(=O)[nH]c2ccccc12 | inactive: 3.01%
CCOc1ccc(C)cc1CN(CCCl)CCCl | inactive: -1.45%
O=C1CCN(Cc2ccccc2)CC1 | inactive: -0.55%
CC(C)(C)n1nnnc1C(c1ccccc1)N1CCC(n2c(=O)[nH]c3ccccc32)CC1 (stereo not drawn) | inactive: 6.05%
COc1ccc(NC2CCN(CCc3ccccc3)CC2)c(OC)c1 | inactive: -3.75%
CCOC(=O)N1CCC(Nc2ccc(F)cc2)CC1 | inactive: -0.41%
CCCCn1nnnc1C(c1cc2ccccc2o1)N1CCC(n2c(=O)[nH]c3ccccc32)CC1 (stereo not drawn) | inactive: 4.44%
O=P1(N(CCCl)CCCl)SCCCS1 | inactive: 2.63%
CCCCOc1ccc(C(=O)NCC2(N3CCOCC3)CCCCC2)cc1 | inactive: -7.7%
O=C(NCC1(N2CCCCC2)CCCCC1)c1ccc(F)cc1 | inactive: -6.05%
O=c1[nH]c2ccccc2n1C1CCN(C(c2ccccc2)c2nnnn2C2CCCCC2)CC1 (stereo not drawn) | inactive: 3.84%
O=c1[nH]c2ccccc2n1C1CCN(C(c2cccc3ccccc23)c2nnnn2C2CCCC2)CC1 (stereo not drawn) | inactive: 3.98%
CCOC(=O)N1CCC(Nc2cccc(C)c2)CC1 | inactive: -6.57%
COc1cc(C(=O)NCC2(N(C)C)CCCCC2)ccc1OC(F)F | inactive: -2.28%
O=C(NCC1(N2CCCCC2)CCCCC1)c1cccs1 | inactive: -1.78%

Structure (SMILES) | activation
CCCCn1nnnc1C(CC)N1CCC(n2c(=O)[nH]c3ccccc32)CC1 (stereo not drawn) | inactive: 7.52%
CCCCn1nnnc1C(c1cccs1)N1CCC(n2c(=O)[nH]c3ccccc32)CC1 (stereo not drawn) | inactive: 4.32%
O=C(NCC1(N2CCCCC2)CCCCC1)c1ccc(=O)[nH]c1 | inactive: -1.42%
CC(C)(C)OC(=O)N1CCC(N(C(=O)c2ccccc2)c2ccc(F)cc2)CC1 | inactive: -2.69%
COc1ccc(C(=O)NCC2(N3CCCCC3)CCCCC2)c(OC)c1OC | inactive: -1.81%
CCC(c1nnnn1C1CCCC1)N1CCC(n2c(=O)[nH]c3ccccc32)CC1 (stereo not drawn) | inactive: 13.4%
COc1ccc(C(=O)NCC2(N3CCCCC3)CCCCC2)cc1 | inactive: -3.88%
Cc1cccc(NC2(C#N)CCN(Cc3ccccc3)CC2)c1 | inactive: 2.98%
CSc1ccccc1C(=O)NCC1(N2CCCCC2)CCCCC1 | inactive: -2.89%
O=C(NCC1(N2CCOCC2)CCCCC1)c1cc2ccccc2o1 | inactive: -1.77%
Cc1cc(C)cc(N(C(=O)c2ccccc2)C2CCN(C(=O)OC(C)(C)C)CC2)c1 | inactive: -10.7%
O=C(NCC1(N2CCCCC2)CCCCC1)c1ccc(Cl)nc1 | inactive: -5.85%
O=c1[nH]c2ccccc2n1C1CCN(C(c2ccccc2OC(F)(F)F)c2nnnn2C2CCCCC2)CC1 (stereo not drawn) | inactive: 2.01%
CCCCn1nnnc1C(c1ccc(OC)cc1)N1CCC(n2c(=O)[nH]c3ccccc32)CC1 (stereo not drawn) | inactive: 2.7%
CCOC(=O)N1CCC(Nc2ccc(OC)cc2)CC1 | inactive: 0.34%
COc1ccc(Cl)cc1C(=O)NCC1(N2CCOCC2)CCCCC1 | inactive: -0.6%
O=C(NCC1(N2CCCCC2)CCCCC1)c1ccc(Cl)s1 | inactive: -2.85%
N#CC1(Nc2ccccc2)CCN(Cc2ccccc2)CC1 | inactive: -0.51%
O=C(OC1CN2CCC1CC2)C1c2ccccc2Oc2ccccc21 (stereo not drawn) | inactive: -10.4%
O=c1[nH]c2ccccc2n1C1CCN(C(c2cc3ccccc3o2)c2nnnn2C2CCCCC2)CC1 (stereo not drawn) | inactive: 1.4%
